Here are results for two compounds from publication PMC7488288, “Understanding and Improving the Membrane Permeability of VH032-Based PROTACs” (ACS Medicinal Chemistry Letters, 2020).

One data set in a line: in vitro. The settings on record: PAMPA, pH 7.4, PAMPA permeability (Pe). On the technique in general: The PAMPA barrier holds no transporters, so it reflects passive diffusion.
The next data set concerns the target T1, VHL (Homo sapiens, UniProt P40337).
T1 construct: each well solution containing 15 nM VCB
In words: Fluorescence polarization (FP) competitive binding assay. The settings on record: 15 nM VCB protein, 10 nM FAM-labeled HIF-1α peptide JC9, read-out: Kd (FP-derived).

As a reminder, the Papp is the rate of passage across a membrane or cell layer, normalised by area and donor concentration. Low readings indicate slow passage, high ones fast passage. In the data set “in vitro”, `Cc1ncsc1-c1ccc(CNC(=O)[C@@H]2C[C@@H](O)CN2C(=O)[C@@H](OC(=O)Cc2ccccc2)C(C)(C)C)cc1` [Compound 3] returned an apparent permeability (Papp) at 7 h of 16 ×10⁻⁶ cm/s.
What is called Kd is the free concentration of one partner at which half of the binding sites on the other are occupied at equilibrium, for simple one-to-one binding. Take `Cc1ncsc1-c1ccc(CNC(=O)[C@@H]2C[C@@H](O)CN2C(=O)[C@@H](NC(=O)Cc2ccccc2)C(C)(C)C)cc1` [Compound 4]: the Kd at VHL came out at 450 nM.
